Assay results reported in patent US7094593B1, “Method for improving the function of heterologous G protein-coupled receptors” (priority 1998, dated 2006).

Protein sequences, listed by entry. Tags and fused reporters are not part of them.
UniProt P08483, whole entry: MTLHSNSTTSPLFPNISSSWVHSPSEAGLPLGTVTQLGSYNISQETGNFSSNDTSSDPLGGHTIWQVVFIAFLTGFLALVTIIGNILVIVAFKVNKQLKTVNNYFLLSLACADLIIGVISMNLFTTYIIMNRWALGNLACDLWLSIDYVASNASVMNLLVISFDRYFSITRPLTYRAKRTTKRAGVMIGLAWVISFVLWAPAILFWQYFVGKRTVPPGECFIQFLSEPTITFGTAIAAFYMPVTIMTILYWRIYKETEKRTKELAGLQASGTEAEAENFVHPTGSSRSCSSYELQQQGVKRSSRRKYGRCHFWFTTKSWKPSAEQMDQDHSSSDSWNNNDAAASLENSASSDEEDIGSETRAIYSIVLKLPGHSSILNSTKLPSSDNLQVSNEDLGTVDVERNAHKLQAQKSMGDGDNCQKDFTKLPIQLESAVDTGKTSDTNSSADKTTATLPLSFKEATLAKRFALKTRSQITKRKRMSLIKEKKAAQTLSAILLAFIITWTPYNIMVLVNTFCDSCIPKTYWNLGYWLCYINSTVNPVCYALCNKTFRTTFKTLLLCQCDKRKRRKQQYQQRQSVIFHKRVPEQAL

Biological target: wild type rat M3 MAR (Rattus norvegicus, UniProt P08483)
Conditions: yeast cells containing wild type M3 MAR

Question: How did the “agonist-dependent yeast cell growth” value turn out when `C[N+](C)(C)CCOC(N)=O` [carbachol] was run?
Answer: lack of agonist-dependent yeast cell growth
